Reference: patent US10208066B2, “Imidazopyridazine compounds and their use” (HUTCHISON MEDIPHARMA LIMITED, priority 2014, dated 2019)

Amino acid sequences for entries named in this document (tags omitted). A change or cut given only in a name is not applied to a line headed by its entry.
UniProt P48736, whole entry, species assumed: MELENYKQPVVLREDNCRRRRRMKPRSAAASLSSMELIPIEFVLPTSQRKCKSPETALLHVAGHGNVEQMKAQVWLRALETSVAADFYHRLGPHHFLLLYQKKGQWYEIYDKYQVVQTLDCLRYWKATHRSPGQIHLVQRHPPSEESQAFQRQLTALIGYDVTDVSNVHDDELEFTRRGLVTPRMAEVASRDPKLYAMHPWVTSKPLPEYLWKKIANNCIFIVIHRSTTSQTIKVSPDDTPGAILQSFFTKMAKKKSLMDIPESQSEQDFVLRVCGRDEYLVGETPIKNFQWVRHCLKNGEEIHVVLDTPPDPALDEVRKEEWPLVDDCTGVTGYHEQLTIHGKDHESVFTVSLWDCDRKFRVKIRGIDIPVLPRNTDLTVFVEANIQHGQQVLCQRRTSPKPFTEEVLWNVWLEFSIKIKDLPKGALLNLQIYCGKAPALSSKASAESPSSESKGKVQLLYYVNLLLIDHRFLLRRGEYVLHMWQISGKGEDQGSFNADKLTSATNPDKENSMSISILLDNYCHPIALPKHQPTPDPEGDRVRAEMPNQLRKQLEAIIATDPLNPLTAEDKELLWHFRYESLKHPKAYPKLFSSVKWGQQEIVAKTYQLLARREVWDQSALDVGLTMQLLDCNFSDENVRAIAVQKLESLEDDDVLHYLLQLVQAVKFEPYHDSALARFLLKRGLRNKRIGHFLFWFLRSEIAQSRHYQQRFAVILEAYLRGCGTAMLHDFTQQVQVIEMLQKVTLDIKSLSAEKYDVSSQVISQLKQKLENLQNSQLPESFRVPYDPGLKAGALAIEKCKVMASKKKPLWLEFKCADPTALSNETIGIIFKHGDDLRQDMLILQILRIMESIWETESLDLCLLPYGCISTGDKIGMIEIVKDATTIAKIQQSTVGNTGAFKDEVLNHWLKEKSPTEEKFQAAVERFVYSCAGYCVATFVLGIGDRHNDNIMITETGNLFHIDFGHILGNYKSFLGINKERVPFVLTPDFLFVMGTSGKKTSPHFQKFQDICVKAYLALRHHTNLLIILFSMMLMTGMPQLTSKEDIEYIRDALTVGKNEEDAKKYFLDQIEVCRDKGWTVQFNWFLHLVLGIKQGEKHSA
UniProt P42338: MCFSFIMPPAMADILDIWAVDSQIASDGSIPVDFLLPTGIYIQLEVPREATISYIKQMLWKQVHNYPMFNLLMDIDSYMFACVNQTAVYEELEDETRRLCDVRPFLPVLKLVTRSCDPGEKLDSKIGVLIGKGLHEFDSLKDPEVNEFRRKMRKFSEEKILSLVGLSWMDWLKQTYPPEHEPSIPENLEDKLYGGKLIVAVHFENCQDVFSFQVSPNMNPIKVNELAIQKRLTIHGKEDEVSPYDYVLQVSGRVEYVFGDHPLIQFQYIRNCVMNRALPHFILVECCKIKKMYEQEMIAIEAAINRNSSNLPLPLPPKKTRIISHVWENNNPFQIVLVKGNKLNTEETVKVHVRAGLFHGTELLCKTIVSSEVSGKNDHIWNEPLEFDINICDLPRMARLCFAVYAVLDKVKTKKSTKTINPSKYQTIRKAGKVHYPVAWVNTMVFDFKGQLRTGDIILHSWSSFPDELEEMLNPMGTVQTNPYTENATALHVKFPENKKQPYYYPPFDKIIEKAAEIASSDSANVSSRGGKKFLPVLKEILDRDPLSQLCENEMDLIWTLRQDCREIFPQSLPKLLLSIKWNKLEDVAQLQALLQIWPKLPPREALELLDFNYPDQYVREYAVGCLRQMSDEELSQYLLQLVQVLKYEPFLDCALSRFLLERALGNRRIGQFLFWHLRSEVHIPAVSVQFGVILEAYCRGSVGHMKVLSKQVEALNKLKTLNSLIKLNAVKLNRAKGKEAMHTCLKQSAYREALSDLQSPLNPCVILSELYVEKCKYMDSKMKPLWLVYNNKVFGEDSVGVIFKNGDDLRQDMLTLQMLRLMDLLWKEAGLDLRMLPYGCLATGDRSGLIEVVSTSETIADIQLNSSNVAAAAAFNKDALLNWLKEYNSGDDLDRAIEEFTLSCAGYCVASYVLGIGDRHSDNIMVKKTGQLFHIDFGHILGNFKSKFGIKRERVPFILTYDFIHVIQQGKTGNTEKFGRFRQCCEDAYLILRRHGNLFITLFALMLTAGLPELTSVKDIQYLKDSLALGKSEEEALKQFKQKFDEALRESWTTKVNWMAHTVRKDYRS
UniProt O00329, whole entry, species assumed: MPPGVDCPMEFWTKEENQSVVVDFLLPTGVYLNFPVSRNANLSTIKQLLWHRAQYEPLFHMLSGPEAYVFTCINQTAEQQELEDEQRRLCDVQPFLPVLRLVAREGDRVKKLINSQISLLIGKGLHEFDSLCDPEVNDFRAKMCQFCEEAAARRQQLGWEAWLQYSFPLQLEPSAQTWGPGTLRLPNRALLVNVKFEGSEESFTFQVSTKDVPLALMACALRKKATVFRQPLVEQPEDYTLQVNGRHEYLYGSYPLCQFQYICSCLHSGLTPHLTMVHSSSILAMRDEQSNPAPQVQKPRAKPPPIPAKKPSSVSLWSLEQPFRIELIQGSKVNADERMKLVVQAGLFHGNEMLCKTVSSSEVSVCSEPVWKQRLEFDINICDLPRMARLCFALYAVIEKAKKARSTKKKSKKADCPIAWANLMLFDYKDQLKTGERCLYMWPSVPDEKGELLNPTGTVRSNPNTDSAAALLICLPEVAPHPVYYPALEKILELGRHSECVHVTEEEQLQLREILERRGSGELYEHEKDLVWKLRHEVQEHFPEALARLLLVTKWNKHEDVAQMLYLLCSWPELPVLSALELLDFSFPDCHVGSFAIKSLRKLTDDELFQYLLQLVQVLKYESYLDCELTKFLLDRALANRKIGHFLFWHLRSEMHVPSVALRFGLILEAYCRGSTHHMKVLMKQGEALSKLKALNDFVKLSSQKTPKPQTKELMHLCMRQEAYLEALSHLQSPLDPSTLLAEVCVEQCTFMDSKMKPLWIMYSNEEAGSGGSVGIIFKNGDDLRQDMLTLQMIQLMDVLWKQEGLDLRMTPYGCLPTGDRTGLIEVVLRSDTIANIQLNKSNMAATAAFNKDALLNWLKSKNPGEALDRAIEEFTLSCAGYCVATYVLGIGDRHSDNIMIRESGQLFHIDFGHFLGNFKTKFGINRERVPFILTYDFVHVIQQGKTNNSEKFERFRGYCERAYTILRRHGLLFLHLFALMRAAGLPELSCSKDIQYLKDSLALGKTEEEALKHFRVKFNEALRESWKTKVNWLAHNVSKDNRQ

How the values were obtained:
Experiment in all cases: Transcreener KINASE Assay, fluorescent determination of PI3K enzyme activity
Type in all cases: biochemical
[1] = molecular target: PI3K-γ (p110γ) (Homo sapiens (Human), UniProt P48736);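 note: ADP produced by p110γ kinase reaction, 80 min at room temperature, detected by far-red fluorescence polarization immunoassay, inhibition relative to 2% DMSO control wells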
[2] = molecular target: PI3K-β (Homo sapiens, UniProt P42338);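 note: recombinant PI3K enzyme reaction, 80 min at room temperature, ADP formed detected by far-red competitive fluorescence polarization immunoassay, inhibition relative to ADP in 2% DMSO control wells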
[3] = molecular target: PI3K-δ (p110δ/p85α) (Homo sapiens (Human), UniProt O00329);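 note: ADP formed by the kinase detected via far-red competitive fluorescence polarization immunoassay after 80 min room-temperature reaction, inhibition relative to 2% DMSO wells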

## CC(Nc1ncnc(N)c1C#N)c1cc2ncc(Cl)n2nc1-c1ccccc1 (racemic) [Compound 2, 4-amino-6-((1-(3-chloro-6-phenylimidazo[1,2-b]pyridazin-7-yl)ethyl)amino)pyrimidine-5-carbonitrile]
[1]
  IC50: 168 nM

## Cc1nnc(-c2c(N)ncnc2N[C@@H](C)c2cc3ncc(Cl)n3nc2-c2ccccc2)o1 [Compound 81, (S)—N^4-(1-(3-chloro-6-phenylimidazo[1,2-b]pyridazin-7-yl)ethyl)-5-(5-methyl-1,3,4-oxadiazol-2-yl)pyrimidine-4,6-diamine]
[2]
  IC50: 630 nM

## C[C@@H](Nc1ncnc(N)c1C#N)c1cc2ncc(Cl)n2nc1-c1ccccc1 [Compound 3, (R)-4-amino-6-((1-(3-chloro-6-phenylimidazo[1,2-b]pyridazin-7-yl)ethyl)amino)pyrimidine-5-carbonitrile]
[3]
  IC50: 48 nM

## C[C@H](Nc1ncnc(N)c1C#N)c1cc2ncc(Cl)n2nc1-c1ccccc1 [Compound 4, (S)-4-amino-6-((1-(3-chloro-6-phenylimidazo[1,2-b]pyridazin-7-yl)ethyl)amino)pyrimidine-5-carbonitrile]
[1]
  IC50: 38 nM
[3]
  IC50: 0.3 nM
